In patent publication US20080131419A1:

Target: actin filaments (F-actin) of lily pollen tubes (lily (Lilium grandiflorum / Lilium longiflorum cv. Osnat))
Assay: cell-based or functional assay

Q: Which inhibition of lily pollen tube growth, 1 uM RNase B1, relative to control does the source give for “Aspergillus niger B1 extracellular RNase (RNase B1) (from UniProt P19791 1-238) (enzyme)” here?
A: 36.5%
